# Reference: paper PMC6979384, “Characterization of the plant homeodomain (PHD) reader family for their histone tail interactions” (Epigenetics & Chromatin, 2020)
# Legend:
# Test in all cases: Histone peptide microarray
# Format in all cases: binding, human
# KDM5B (1) = conditions: sheet "Array Heatmap"; GST-tagged KDM5B (1); arrays performed twice, total replicate number n = 4
# Description: (§1) To more comprehensively define the histone interactions of the 31 PHD readers identified from the domain microarray analyses, we probed each on an alternate microarray platform containing a library of 293 synthetic histone peptides with single or combinatorial PTMs (Additional file 2: Figure S4 and Additional file 3: Table S2).
# (§2) The 31 GST-tagged PHD readers identified in the PHD finger domain array were expressed and purified as previously. Histone peptide arrays and peptide pulldown assays were conducted as recently described (specifically, the optimized protocol from Petell et al. for the former).
# Supplementary file 13072_2020_328_MOESM3_ESM.xlsx: Additional file 3: Table S2. […] Excel Tab Peptide List is a compiled list of the entire 293 histone peptide library with amino acid sequence ranges. […] Each number corresponds to the peptide number designated in Peptide List. Excel Tab Average Signals is a compiled set of binding data: chromatin reader at 0.5 μM vs. entire 293 peptide library. Data is presented as the average and standard deviation of 4 replicates. The average signals are colored to indicate signal intensity with green being strong and white being weak/low. […] Key: red= stronger relative binding; blue = weaker relative binding. Excel Tab Array info summary is a table summarizing the domains, sequence coverage, array signal range, and noise for each of the GST-tagged readers assayed on the peptide microarrays.
# AIRE (PP) = conditions: sheet "Array Heatmap"; GST-tagged AIRE (PP); arrays performed twice, total replicate number n = 4
# Description: as §1, with “S2). […] In general, the 31 PHD fingers were confirmed to associate with the H3 tail with the same H3K4 methyl preferences as in the domain microarrays (Fig. 2; Additional file 3: Table S2). […] In addition, we confirmed the newly identified interactions observed with the domain microarrays for PHRF1 and TRIM66 (Fig. 2).” for “S2).”
# as §2
# (§3) Supplementary file 13072_2020_328_MOESM3_ESM.xlsx: Additional file 3: Table S2. Histone Peptide Microarray Results. Excel Tab Peptide List is a compiled list of the entire 293 histone peptide library with amino acid sequence ranges. Excel Tab Peptide Array Grid Map is a table representing the pattern in which peptides have been printed for the peptide microarray. Each number corresponds to the peptide number designated in Peptide List. Excel Tab Average Signals is a compiled set of binding data: chromatin reader at 0.5 μM vs. entire 293 peptide library. Data is presented as the average and standard deviation of 4 replicates. The average signals are colored to indicate signal intensity with green being strong and white being weak/low. […] Key: red= stronger relative binding; blue = weaker relative binding. Excel Tab Array info summary is a table summarizing the domains, sequence coverage, array signal range, and noise for each of the GST-tagged readers assayed on the peptide microarrays.
# BAZ2B = conditions: sheet "Array Heatmap"; GST-tagged BAZ2B; arrays performed twice, total replicate number n = 4
# Description: as §1, with “S2). […] In general, the 31 PHD fingers were confirmed to associate with the H3 tail with the same H3K4 methyl preferences as in the domain microarrays (Fig. 2; Additional file 3: Table S2). […] In addition, we confirmed the newly identified interactions observed with the domain microarrays for PHRF1 and TRIM66 (Fig. 2).” for “S2).”
# as §2, §3
# BPTF (PB) = conditions: sheet "Array Heatmap"; GST-tagged BPTF (PB); arrays performed twice, total replicate number n = 4
# Description: as §1, with “S2). […] In general, the 31 PHD fingers were confirmed to associate with the H3 tail with the same H3K4 methyl preferences as in the domain microarrays (Fig. 2; Additional file 3: Table S2). […] In addition, we confirmed the newly identified interactions observed with the domain microarrays for PHRF1 and TRIM66 (Fig. 2).” for “S2).”
# as §2, §3
# CHD4 (PPCC) = conditions: sheet "Array Heatmap"; GST-tagged CHD4 (PPCC); arrays performed twice, total replicate number n = 4
# Description: as §1, with “S2). […] In general, the 31 PHD fingers were confirmed to associate with the H3 tail with the same H3K4 methyl preferences as in the domain microarrays (Fig. 2; Additional file 3: Table S2). […] In addition, we confirmed the newly identified interactions observed with the domain microarrays for PHRF1 and TRIM66 (Fig. 2).” for “S2).”
# as §2, §3
# CHD5 (PCC) = conditions: sheet "Array Heatmap"; GST-tagged CHD5 (PCC); arrays performed twice, total replicate number n = 4
# Description: as §1, with “S2). […] In general, the 31 PHD fingers were confirmed to associate with the H3 tail with the same H3K4 methyl preferences as in the domain microarrays (Fig. 2; Additional file 3: Table S2). […] In addition, we confirmed the newly identified interactions observed with the domain microarrays for PHRF1 and TRIM66 (Fig. 2).” for “S2).”
# as §2, §3
# CHD5 (PPCC) = conditions: sheet "Array Heatmap"; GST-tagged CHD5 (PPCC); arrays performed twice, total replicate number n = 4
# Description: as §1, with “S2). […] In general, the 31 PHD fingers were confirmed to associate with the H3 tail with the same H3K4 methyl preferences as in the domain microarrays (Fig. 2; Additional file 3: Table S2). […] In addition, we confirmed the newly identified interactions observed with the domain microarrays for PHRF1 and TRIM66 (Fig. 2).” for “S2).”
# as §2, §3
# DIDO1 = conditions: sheet "Array Heatmap"; GST-tagged DIDO1; arrays performed twice, total replicate number n = 4
# Description: as §1, with “S2). […] In general, the 31 PHD fingers were confirmed to associate with the H3 tail with the same H3K4 methyl preferences as in the domain microarrays (Fig. 2; Additional file 3: Table S2). […] In addition, we confirmed the newly identified interactions observed with the domain microarrays for PHRF1 and TRIM66 (Fig. 2).” for “S2).”
# as §2, §3
# DPF2 (PPC2W2) = conditions: sheet "Array Heatmap"; GST-tagged DPF2 (PPC2W2); arrays performed twice, total replicate number n = 4
# Description: as §1, with “S2). […] In general, the 31 PHD fingers were confirmed to associate with the H3 tail with the same H3K4 methyl preferences as in the domain microarrays (Fig. 2; Additional file 3: Table S2). […] In addition, we confirmed the newly identified interactions observed with the domain microarrays for PHRF1 and TRIM66 (Fig. 2).” for “S2).”
# as §2, §3
# ING1 = conditions: sheet "Array Heatmap"; GST-tagged ING1; arrays performed twice, total replicate number n = 4
# Description: as §1, with “S2). […] In general, the 31 PHD fingers were confirmed to associate with the H3 tail with the same H3K4 methyl preferences as in the domain microarrays (Fig. 2; Additional file 3: Table S2). […] In addition, we confirmed the newly identified interactions observed with the domain microarrays for PHRF1 and TRIM66 (Fig. 2).” for “S2).”
# as §2, §3
# ING2 = conditions: sheet "Array Heatmap"; GST-tagged ING2; arrays performed twice, total replicate number n = 4
# Description: as §1, with “S2). […] In general, the 31 PHD fingers were confirmed to associate with the H3 tail with the same H3K4 methyl preferences as in the domain microarrays (Fig. 2; Additional file 3: Table S2). […] In addition, we confirmed the newly identified interactions observed with the domain microarrays for PHRF1 and TRIM66 (Fig. 2).” for “S2).”
# as §2, §3
# ING3 = conditions: sheet "Array Heatmap"; GST-tagged ING3; arrays performed twice, total replicate number n = 4
# Description: as §1, with “S2). […] In general, the 31 PHD fingers were confirmed to associate with the H3 tail with the same H3K4 methyl preferences as in the domain microarrays (Fig. 2; Additional file 3: Table S2). […] In addition, we confirmed the newly identified interactions observed with the domain microarrays for PHRF1 and TRIM66 (Fig. 2).” for “S2).”
# as §2, §3
# ING4 = conditions: sheet "Array Heatmap"; GST-tagged ING4; arrays performed twice, total replicate number n = 4
# Description: as §1, with “S2). […] In general, the 31 PHD fingers were confirmed to associate with the H3 tail with the same H3K4 methyl preferences as in the domain microarrays (Fig. 2; Additional file 3: Table S2). […] In addition, we confirmed the newly identified interactions observed with the domain microarrays for PHRF1 and TRIM66 (Fig. 2).” for “S2).”
# as §2, §3
# ING5 = conditions: sheet "Array Heatmap"; GST-tagged ING5; arrays performed twice, total replicate number n = 4
# Description: as §1, with “S2). […] In general, the 31 PHD fingers were confirmed to associate with the H3 tail with the same H3K4 methyl preferences as in the domain microarrays (Fig. 2; Additional file 3: Table S2). […] In addition, we confirmed the newly identified interactions observed with the domain microarrays for PHRF1 and TRIM66 (Fig. 2).” for “S2).”
# as §2, §3
# KDM4C (TTP) = conditions: sheet "Array Heatmap"; GST-tagged KDM4C (TTP); arrays performed twice, total replicate number n = 4
# Description: as §1, with “S2). […] In general, the 31 PHD fingers were confirmed to associate with the H3 tail with the same H3K4 methyl preferences as in the domain microarrays (Fig. 2; Additional file 3: Table S2). […] In addition, we confirmed the newly identified interactions observed with the domain microarrays for PHRF1 and TRIM66 (Fig. 2).” for “S2).”
# as §2, §3
substance,measurement,setting,value
H3K4me2 + K9me2: H3 1-15,"Array Heatmap signal, KDM5B (1)",KDM5B (1),0.6814
same,"Array Heatmap signal, AIRE (PP)",AIRE (PP),0.4852
same,"Array Heatmap signal, BAZ2B",BAZ2B,0.5415
same,"Array Heatmap signal, BPTF (PB)",BPTF (PB),0.4073
same,"Array Heatmap signal, CHD4 (PPCC)",CHD4 (PPCC),0.6688
same,"Array Heatmap signal, CHD5 (PCC)",CHD5 (PCC),0.8641
same,"Array Heatmap signal, CHD5 (PPCC)",CHD5 (PPCC),0.658
same,"Array Heatmap signal, DIDO1",DIDO1,0.8456
same,"Array Heatmap signal, DPF2 (PPC2W2)",DPF2 (PPC2W2),0.808
same,"Array Heatmap signal, ING1",ING1,0.6537
same,"Array Heatmap signal, ING2",ING2,0.6793
same,"Array Heatmap signal, ING3",ING3,0.5755
same,"Array Heatmap signal, ING4",ING4,0.5436
same,"Array Heatmap signal, ING5",ING5,0.4379
same,"Array Heatmap signal, KDM4C (TTP)",KDM4C (TTP),0.5756
